# Test results: patent US7888059B2, “Highly purified and stabilized Na,K-ATPase isoforms and methods of producing same” (Yeda Research and Development Co. Ltd., priority 2006, dated 2011)
# Molecular target: T1, human α1β1 (Homo sapiens, UniProt P05023)
# T1 construct: The coding regions were excised with XbaI and subcloned; made in house; host or cells: Pichia pastoris SMD1165
# Experiment: Stabilization of human α1β1 Na,K-ATPase activity over time (lipids, sterols, FXYD1)
# Assay type: biochemical
# Settings: 45° C.; human α1β1 prepared with SOPS/cholesterol and PLM
# Description: Urea-treated membranes were homogenized with n-dodecyl-β-maltoside (DDM:protein, 2:1 w/w) (cat. No D310, Anatrace) in a medium containing NaCl, 250 mM; Tris.HCl, 20 mM pH 7.4; imidazole, 5 mM; PMSF, 0.5 mM; and glycerol, 10%. The protein concentration could be varied from 1-5 mg/ml and DDM adjusted accordingly from 2-10 mg/ml respectively. The unsolubilized material was removed by ultracentrifugation. Purification was done by metal-chelate chromatography using BD Talon, metal affinity resin (Co^2+-chelate). The DDM-solubilized membranes were incubated overnight at 4° C. with BD Talon beads, at a ratio of 100 μl beads per supernatant from 10 mg of membranes. EDTA was added at 50-250 μM at protein concentrations 1-5 mg/ml, respectively. The beads were washed twice for five minutes with vortexing with five volumes of a solution containing NaCl, 100 mM; Tris.HCl, 20 mM pH 7.4; C12E8, 0.1 mg/ml; DOPS or SOPS 0.05 mg/ml or other lipids and cholesterol at 0.01 mg/ml, as indicated; glycerol, 10%, and imidazole, 10 mM. […] Protein concentration was determined by comparative gel densitometry with pig kidney Na^+,K^+-ATPase or by Lowry assay. […]
substance,measurement,value
"PLM: human FXYD1, subsidiary subunit of Na,K-ATPase, Genbank Accession No. H23593","stability of Na,K-ATPase activity",essentially stable over 150 minutes at 45 °C
